Screens: PubChem, several laboratories
In the library only some 4.2% were active in any assay of this set; here they are far more common.
MC4R antagonist: human MC4R antagonism in cAMP assay; P32245; MC4R-expressing cells, MTII-stimulated cAMP, LANCE TR-FRET; inhibition, % at 6.5 µM; actives 0.48% (n = 360,000);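 active = inhibition above its plate's cutoff, the mean of tested wells on that plate plus 3 SD, cut at about 29% in these data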;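 also: 0% = Melanotan II alone and 100% = Melanotan II plus saturating MCL0020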
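Test system: U2OS cells stably expressing human melanocortin 4 receptor (MC4R); also added: Melanotan II challenge; compound: 6.5 µM single dose; timing: 30-min compound preincubation, 1-h Melanotan II challenge, 1-h detection, room temperature; signal: Eu-cAMP/anti-cAMP TR-FRET, emission 671 nm; repeats: one well per compound, no replicates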
MC4R barr agon: activates human MC4R beta-arrestin recruitment. P32245. U2OS MC4R beta-arrestin complementation, luminescence; percent of melanotan II response, DMSO zero. actives 0.98% (n = 360,000). activation, % at 8.9 µM;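 active = activation above a per-plate cutoff, the mean activation of sample wells on that plate plus 3 SD, cut at about 8% in these data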
ALR inh: inhibitors of human sulfhydryl oxidase ALR; P55789; purified ALR, DTT oxidation, H2O2 HRP-luminol luminescence; inhibition, % (test concentration not listed); actives 3.8% (n = 290,000); AID 485317;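 active = mean and each replicate at 75% or more; inconclusive = only one of the two met; inactive = neither met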;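 also: stock transfer was 7.5 nL into about 7.5 µL; 0% = neutral wells and 100% = wells with inactivated enzyme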
NALP1 inh: blocks the NALP1 inflammasome reconstituted in yeast; S. cerevisiae NALP1/ASC/caspase-1 growth, X-gal OD620, 72 h; inhibition, % at 10 µM; actives 0.61% (n = 280,000); in the data active = inhibition mostly above about 24%, no sharp cut-off; inactive = mostly below about 32%
HDAC3 inhib: inhibitors of human histone deacetylase 3; O15379; recombinant HDAC3, fluorogenic peptide/trypsin coupled, fluorescence; inhibition, % at 8.3 µM; actives 0.15% (n = 320,000); AID 2718; in the data active = inhibition above about 26%, passing the limit was not always enough
Yeast UUG start: modulators of start codon recognition fidelity in yeast; S. cerevisiae UUG-firefly luciferase reporter, luminescence/redox ratio; activity score, % at 18.7 µM; hit rate 0.13% among 350,000; AID 602363;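 active = replicate mean at a twofold rise or more, about +100% in these data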;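 note: firefly luciferase made from a UUG start codon reports start codon fidelity; reporter light over untreated wells divided by growth signal over untreated wells; some hits fall short of that in this replicate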
* = called active by the depositor; / = not tested or not shown.

SMILES	MC4R antagonist	MC4R barr agon	ALR inh	NALP1 inh	HDAC3 inhib	Yeast UUG start
Cc1[nH]c2ccccc2c1/C=N/NC(=O)Cc1cccs1	-7	-2	94*	11	11	0
Cc1[nH]c2ccccc2c1/C=N/NC(=O)CNC(=O)Cc1ccccc1	-9	-2	32	-12	4	-18
COc1ccc(-c2cc(C(=O)NC3=NCCS3)c3ccccc3n2)cc1OC	2	-2	98*	14	7	/
C[C@@H]1CN([C@@H](C)CO)C(=O)c2cc(-c3cccnc3)cnc2O[C@@H]1CN(C)C(=O)c1ccccc1F	/	/	/	/	/	-7
O=C(CSc1ncnc2ccccc12)c1ccco1	0	2	99*	11	40*	/
O=C(CSc1ncnc2ccccc12)NCc1ccco1	3	0	99*	-4	1	-13
O=C(COc1ncnc2ccccc12)NCc1ccco1	-6	-3	-3	0	-4	-9
Cc1nc(SCC(=O)NCc2ccco2)c2c3c(sc2n1)CCCC3	-8	-1	97*	5	0	-10
O=C(CSc1ncnc2ccccc12)NCCc1ccccc1	3	-2	1	11	0	-20
Cc1cc(SCC(=O)NC(=O)NCc2ccco2)nc2ccccc12	6	0	98*	4	-11	-12
C[C@@H]1CN([C@@H](C)CO)C(=O)Cc2cc(N(C)C)ccc2O[C@@H]1CN(C)C(=O)Nc1ccc(C(F)(F)F)cc1	/	/	/	/	/	13
O=[N+]([O-])c1ccc(CSc2ccccn2)cc1	-6	-2	10	14	9	1
Cc1ccc2nc(SCC(=O)NCc3ccco3)c(C)cc2c1	-3	-2	98*	8	8	-16
CCC1CCc2c(sc3nc(SCC(=O)NCc4ccco4)n(-c4ccccc4)c(=O)c23)C1 (stereo unspecified)	9	8.7*	8	5	13	-5
O=[N+]([O-])c1ccc(CSc2ncnc3ccccc23)cc1	9	-3	99*	-4	-3	-13
O=C(Nc1ccc(SC(F)F)cc1)c1ccccc1F	14	-2	99*	12	4	/
O=[N+]([O-])c1ccc2c(c1)CNc1ccccc1O2	1	1	99*	3	2	/
CCOc1cc(/C=C2\SC(=S)N(Nc3ccccc3)C2=O)ccc1O	-10	-4	81*	-12	12	-13
O=C1/C(=C/c2ccncc2)SC(=S)N1Nc1ccccc1	-5	-2	99*	3	16	-24
CCOc1cc(/C=C2\SC(=S)N(NS(=O)(=O)c3ccccc3)C2=O)ccc1O	17	-2	99*	-1	12	-8

Sorted by the number under ALR inh (largest number first): five of the compounds above.
SMILES	ALR inh
CCOc1cc(/C=C2\SC(=S)N(NS(=O)(=O)c3ccccc3)C2=O)ccc1O	99*
Cc1[nH]c2ccccc2c1/C=N/NC(=O)Cc1cccs1	94*
Cc1[nH]c2ccccc2c1/C=N/NC(=O)CNC(=O)Cc1ccccc1	32
CCC1CCc2c(sc3nc(SCC(=O)NCc4ccco4)n(-c4ccccc4)c(=O)c23)C1 (stereo unspecified)	8
O=C(CSc1ncnc2ccccc12)NCCc1ccccc1	1

Additional records follow.
SMILES	MC4R antagonist	MC4R barr agon	ALR inh	NALP1 inh	HDAC3 inhib	Yeast UUG start
C[C@H](CO)N1C[C@H](C)[C@@H](CN(C)C(=O)c2cccnc2)Oc2cc(-c3cccc(C#N)c3)ccc2S1(=O)=O	/	/	/	/	/	0
COc1ccc(CN(C)C[C@H]2OCCCC[C@@H](C)Oc3ccc(NS(=O)(=O)c4ccc(C)cc4)cc3C(=O)N([C@@H](C)CO)C[C@@H]2C)cc1	/	/	/	/	/	4
Cc1noc(C)c1S(=O)(=O)Nc1ccc2c(c1)C(=O)N([C@@H](C)CO)C[C@@H](C)[C@@H](CN(C)C)OCCCC[C@@H](C)O2	/	/	/	/	/	-2
CN=c1scc(C)n1/N=C/c1ccc(O)cc1	13	0	99*	21	5	-39
C=CCN=c1scc(C)n1/N=C/c1ccc(O)c(O)c1	2	-3	99*	5	-3	/
CN=c1scc(C)n1/N=C/c1ccc(O)cc1O	-11	-1	99*	13	12	/
CN=c1scc(C)n1/N=C/c1cc(Br)c(O)c(Br)c1	-1	-4	/	3	0	/
CN=c1scc(C)n1/N=C/c1ccc2c(c1)OCO2	4	-2	98*	-2	3	/
Cc1noc(C)c1NC(=O)Nc1ccc2c(c1)C(=O)N([C@@H](C)CO)C[C@@H](C)[C@H](CN(C)C(=O)Nc1ccc(C(F)(F)F)cc1)O2	/	/	/	/	/	-7
O=C(N[C@@H]1CC[C@H](CCNS(=O)(=O)c2ccc(F)cc2)O[C@H]1CO)c1ccccn1	/	/	/	/	/	-7
CCOC(=O)CNC(c1ccccc1)c1cc(Br)ccc1NC(=O)CCN1CCOCC1 (stereo unspecified)	2	-2	/	98*	-1	/
CCOC(=O)CNC(c1ccccc1)c1cc(Br)ccc1NC(=O)OCC (stereo unspecified)	1	2	-4	12	4	-10
COc1ccc(S(=O)(=O)N(C)C[C@@H]2Oc3ccc(NC(=O)NC(C)C)cc3CC(=O)N([C@@H](C)CO)C[C@H]2C)cc1	/	/	/	/	/	6
COc1ccc(NS(=O)(=O)c2ccc3nc(COc4ccc(C#N)cc4)[nH]c3c2)cc1	-9	0	98*	13	-4	/
Cc1ccc(C)c(Nc2ncnc3nc[nH]c23)c1	0	0	-1	1	4	-19
Cc1cccc(Nc2ncnc3nc[nH]c23)c1	4	0	95*	11	1	-27
COc1ccc(C(=O)NCc2nnc(SCC(=O)Nc3nnc(C)s3)o2)cc1	0	1	99*	-4	0	-10
COc1cc(C(=O)NCc2nnc(SCC(=O)Nc3cc(C)cc(C)c3)o2)cc(OC)c1OC	-6	-2	97*	12	8	-12
COc1cc(C(=O)NCc2nnc(SCC(=O)Nc3c(C)cc(C)cc3C)o2)cc(OC)c1OC	-6	1	-2	0	-7	-16
O=C1/C(=C\c2ccc([N+](=O)[O-])cc2)CCc2ccccc21	11	0	-13	33	0	/

Complete entries from above. Values in the order: MC4R antagonist, MC4R barr agon, ALR inh, NALP1 inh, HDAC3 inhib, Yeast UUG start
Record of Cc1noc(C)c1NC(=O)Nc1ccc2c(c1)C(=O)N([C@@H](C)CO)C[C@@H](C)[C@H](CN(C)C(=O)Nc1ccc(C(F)(F)F)cc1)O2 : /, /, /, /, /, -7
Record of O=[N+]([O-])c1ccc(CSc2ncnc3ccccc23)cc1 : 9, -3, 99*, -4, -3, -13

(list continues)
SMILES	MC4R antagonist	MC4R barr agon	ALR inh	NALP1 inh	HDAC3 inhib	Yeast UUG start
O=C1/C(=C/Nc2cccc([N+](=O)[O-])c2)CCc2ccccc21	26	9.2*	-12	22	5	-31
O=[N+]([O-])c1ccc(NNS(=O)(=O)c2cc(Cl)ccc2Cl)nc1	3	0	100*	4	-3	-12
COc1ccc(CN2CC(C(N)=O)Oc3ccccc32)cc1F (stereo unspecified)	-10	0	98*	-2	-1	-1
Cc1cc(N)ccc1-n1c(C)ccc1C	-3	-2	17	4	1	-17
NC(=O)c1cc(N)ccc1N1CCCC1	4	0	83*	20	2	-7
NC(=O)c1cc(N)ccc1N1CCCCC1	2	-1	99*	-4	-8	/
Cc1cc(N)ccc1N1CCCC1	7	-1	98*	14	1	-11
NC(=O)c1ccccc1N1CCCCC1	20	0	4	19	2	/
CC1CCCN(c2ccc(N)cc2C(N)=O)C1 (stereo unspecified)	-2	-2	98*	1	-9	-17
O=C(Nc1ccccc1)Nc1ccc2c(c1)[C@H]1C[C@H](CC(=O)N3CCOCC3)O[C@@H](CO)[C@H]1O2	/	/	/	/	/	-14
